Test results taken from patent US7534897B2 (Shionogi & Co., Ltd., priority 2002, dated 2009).

Amino acid sequences for entries named in this document (tags omitted).
UniProt Q9Y5Y4, whole entry: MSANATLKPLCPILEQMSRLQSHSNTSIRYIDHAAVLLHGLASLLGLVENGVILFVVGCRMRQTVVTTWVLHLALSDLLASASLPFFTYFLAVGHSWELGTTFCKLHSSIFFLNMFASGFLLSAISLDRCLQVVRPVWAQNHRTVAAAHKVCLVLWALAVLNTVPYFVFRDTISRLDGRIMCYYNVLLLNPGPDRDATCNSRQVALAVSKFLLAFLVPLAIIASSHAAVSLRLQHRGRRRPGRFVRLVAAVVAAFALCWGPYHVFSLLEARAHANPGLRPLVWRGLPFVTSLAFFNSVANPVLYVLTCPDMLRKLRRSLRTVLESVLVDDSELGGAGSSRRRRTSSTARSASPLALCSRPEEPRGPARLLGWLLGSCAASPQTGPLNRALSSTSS

Biological target: CRTH2 (Homo sapiens, UniProt Q9Y5Y4)
Test: Binding activity to CRTH2 ([3H]PGD2 binding assay)

## O=C(O)Cn1nc(-c2cccc(NS(=O)(=O)c3ccc(F)cc3)c2)c2ccccc21
read-out: CRTH2 inhibitory activity IC50, membrane fraction of CRTH2-transfected K562 cells, tested form: MeOH solvate
  IC50: 35 nM

## O=C(O)Cn1cc(C2=CCN(S(=O)(=O)c3ccc(F)cc3)CC2)c2ccccc21
read-out: CRTH2 inhibitory activity IC50, membrane fraction of CRTH2-transfected K562 cells
  IC50: 68 nM

## O=C(O)Cn1cc(-c2cccc(NS(=O)(=O)c3ccc(F)cc3)c2)c2ccccc21
read-out: CRTH2 inhibitory activity IC50, membrane fraction of CRTH2-transfected K562 cells, tested form: 0.8 MeOH solvate
  IC50: 35 nM

Read-outs that look alike come from different tables or passages of the source.
